The test concerns the target opiated K receptor (Cavia porcellus, UniProt P41144). Description: Bond to the opiated K receptor in vitro (displacement of 3H ethylketocyclazocine). Conditions: read-out: IC50 (50% inhibiting concentration); guinea pigs brains membrane residues, 3H ethylketocyclazocine 1 nM, 25° C. 40 minutes. (In a radioligand displacement assay an active substance lowers the binding of a labelled ligand.)

Sequences of proteins named here, by UniProt entry; tags and fusion partners are left off. A change or cut given only in a name is not applied to a line headed by its entry.
UniProt P41144: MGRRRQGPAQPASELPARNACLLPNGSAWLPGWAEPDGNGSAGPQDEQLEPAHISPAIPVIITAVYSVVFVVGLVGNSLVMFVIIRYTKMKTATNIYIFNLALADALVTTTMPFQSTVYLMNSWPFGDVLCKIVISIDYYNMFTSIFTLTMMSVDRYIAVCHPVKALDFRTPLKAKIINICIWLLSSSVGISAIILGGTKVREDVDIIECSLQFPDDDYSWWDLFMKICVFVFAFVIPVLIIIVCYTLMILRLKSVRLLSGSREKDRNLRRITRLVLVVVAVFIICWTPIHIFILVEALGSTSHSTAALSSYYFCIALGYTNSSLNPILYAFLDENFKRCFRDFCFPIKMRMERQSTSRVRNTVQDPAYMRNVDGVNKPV

Experimental findings from patent US4877796A (priority 1986, dated 1989) are described below.

For `CN1CCC[C@@H]2CCC[C@@H](N(C)C(=O)COc3ccc(Cl)c(Cl)c3)[C@@H]21` (relative stereo), the IC50 was found to be 5.3 nM.

Take `CN1CCC[C@@H]2CCC[C@@H](N(C)C(=O)Cc3ccc(Cl)c(Cl)c3)[C@@H]21` (relative stereo): the IC50 stood at 5.6 nM.
